Source: US6908912B2, “Pyrithione biocides enhanced by zinc metal ions and organic amines” (priority 1999, dated 2005)

Assay: Solubility and stability of concentrated mixtures of sodium pyrithione, ZnCl2 and organic amines (Example 55)
Conditions: room temperature
[1] = mixture of NaPT 10.00, ZnCl2 1.74, organic amine(s) 60.50, water 27.76 weight %

2-(methylamino)ethanol
Appearance at 24 Hrs [1]: S
Appearance at 72 Hrs [1]: S
solubility and stability of mixture after 24 and 72 hours (mixtures of sodium pyrithione, ZnCl2 and the named amine): soluble and stable mixtures
